Settings: at concentrations required for NMR (2mM samples were made in 70-90% acetonitrile-d3)

Substance: mutacin 1140
- Solubility in aqueous solutions: not soluble

From US6964760B2, “Antimicrobial polypeptide, nucleic acid, and methods of use” (University of Florida Research Foundation, priority 1997, dated 2005)
